# Legend:
# 6xHis-tagged RBD_(ROCK1) = 6xHis-tagged RBD_(ROCK1) (UniProt Q13464); test: BLI; BLItz instrument; His-tagged protein loaded on Ni-NTA biosensor for 90 s; association and dissociation 120 s; three concentrations
# [1] = target: 6xHis-CRIB_PAK1 (Homo sapiens); test: BLI; details: natural protein
Substance,fold lower affinity than RhoA-ROCK (6xHis-tagged RBD_(ROCK1)) [fold],Kd [1] [nM],koff [1] [s⁻¹]
GST-tagged Rac1F37W (Q61L) (from UniProt P63000 1-192) (natural protein),5.8,–,–
GST-tagged Rac1 (Q61L) (from UniProt P63000 1-192) (natural protein),1.8,–,–
GST-tagged Rac1 (Q61L) (from UniProt P63000 1-192),–,35,0.00119
